# Only a part is listed here, and it is no random draw. The source made the active and inactive calls.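 How the source made its calls: active means inhibition above the campaign's mean inhibition across all tested compounds plus 3 SD (cut at about 9.5% in these data); inactive means the rest.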
# Chains of the proteins cited; added tags and fusions are not shown. Lines headed by an entry give the natural chain unless they say otherwise; changes in a name come on top.
# UniProt P53041: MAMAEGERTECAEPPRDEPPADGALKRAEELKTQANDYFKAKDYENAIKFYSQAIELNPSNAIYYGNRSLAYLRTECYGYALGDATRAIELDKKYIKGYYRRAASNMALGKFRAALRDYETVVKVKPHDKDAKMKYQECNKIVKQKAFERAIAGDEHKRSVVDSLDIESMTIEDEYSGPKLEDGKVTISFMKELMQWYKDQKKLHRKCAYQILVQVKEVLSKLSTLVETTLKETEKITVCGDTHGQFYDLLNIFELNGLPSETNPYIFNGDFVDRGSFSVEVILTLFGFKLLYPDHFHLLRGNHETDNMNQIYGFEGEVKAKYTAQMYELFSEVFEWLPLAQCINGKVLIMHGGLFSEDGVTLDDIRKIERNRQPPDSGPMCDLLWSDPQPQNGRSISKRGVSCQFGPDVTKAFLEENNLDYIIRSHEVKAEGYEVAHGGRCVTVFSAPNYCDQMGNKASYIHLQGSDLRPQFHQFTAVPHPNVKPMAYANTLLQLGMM
# Molecular target: Serine/threonine-protein phosphatase 5 (Homo sapiens) (UniProt P53041)
# Assay: inhibition of human PP5 catalytic activity – biochemical, fluorescence, primary screen (AID 1987);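 further: 0% = DMSO only and 100% = 100 µM cantharidin control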
# Conditions: purified PP5c, OMFP substrate fluorescence; at 6.7 µM; hits give high values
row,Structure (SMILES),inhibition
1,CC(C)(C)C(=O)NC(Sc1ccccc1)C(Cl)(Cl)Cl (stereo not given),inactive: -1.54%
2,CCOc1ccc(C2=NCC(CBr)S2)cc1 (stereo not given),inactive: -0.93%
3,O=P1(Nc2nc3ccc(Cl)cc3s2)COc2ccccc2O1 (stereo not given),inactive: -0.6%
4,CC(=O)Nc1ccc(Oc2c([N+](=O)[O-])cc([N+](=O)[O-])cc2[N+](=O)[O-])cc1,inactive: -0.57%
5,CC(=O)Nc1ccc([As](=O)(O)O)c(O)c1,inactive: 0.51%
6,C[C@H]1OP(=O)(Oc2ccccc2)C[C@@H]2O[C@@H]21 (stereo not given in full),inactive: 1.67%
7,C[C@@H]1C=CCP(=O)(Oc2ccccc2)O1 (stereo not given in full),inactive: 0.62%
8,Cc1ccccc1CN(C)C(=O)COC(=O)C(O)(c1ccccc1)c1ccccc1,inactive: 5.06%
9,CC(=O)c1ccc(N2CC2c2ccncc2)cc1 (stereo not given),inactive: 1.22%
10,CCOC(=O)NC(Sc1ccccc1)C(Cl)(Cl)Cl (stereo not given),inactive: 3.37%
11,Cc1ccc(NP(=O)(Oc2cccc(C)c2)Oc2cccc(C)c2)nc1,inactive: 3.12%
12,c1ccc(-c2nn[nH]n2)c(-c2nn[nH]n2)c1,inactive: 0.69%
13,CCNC(=S)/N=C(\N)N[N+](=O)[O-],inactive: 0.31%
14,O=C(NC1CCS(=O)(=O)C1)NP(=S)(Oc1ccccc1)Oc1ccccc1 (stereo not given),inactive: 1.15%
15,CN(C)C(=O)Oc1noc2ccccc12,inactive: -1.13%
16,Cc1ccccc1OP(=O)(Nc1ccccn1)Oc1ccccc1C,inactive: 5.56%
17,CCC(=O)N1C2C3N(C(=O)CC)C1C1N(C(=O)CC)C(C(N1C(=O)CC)N3C(=O)CC)N2C(=O)CC,inactive: -1.54%
18,O=C(OC1CN2CCC1CC2)c1ccccc1 (stereo not given),inactive: 1.57%
19,Cc1ccc(OP(=O)(Nc2ccccn2)Oc2ccc(C)cc2)cc1,inactive: 3.85%
20,CC(=O)NC(SC(=S)N(CC(C)C)CC(C)C)C(Cl)(Cl)Cl (stereo not given),inactive: 0.94%
21,COC(=O)c1cc2c(s1)N=C(c1ccccc1)N(C)P2(=O)N1CCOCC1 (stereo not given),inactive: 2.6%
22,C[C@H]1OP(=O)(Oc2ccccc2)[C@H](O)[C@H](O)[C@H]1N=[N+]=[N-] (stereo not given in full),inactive: 3.8%
23,O=P(Nc1nc2ccccc2s1)(c1ccccc1)c1ccccc1,inactive: -1.73%
24,O=P(Nc1ccccn1)(c1ccc(Br)cc1)c1ccc(Br)cc1,inactive: 0.53%
25,CN(C)C1(CNC(=O)c2ccc(Cl)c(S(N)(=O)=O)c2)CCCCC1,inactive: 0.51%

row,Structure (SMILES),inhibition
1,O=C(OC1CN2CCC1CC2)c1cccc(Cl)c1 (stereo not given),inactive: 1.93%
2,C(Cc1nn[nH]n1)Cc1nn[nH]n1,inactive: 1.2%
3,Nc1ccc([As](=O)(O)c2ccc([N+](=O)[O-])cc2)cc1,inactive: -0.04%
4,O=[As](O)(c1ccccc1)c1ccc(O)cc1,inactive: -1.66%
5,O=[N+]([O-])c1ccc(O)c(/C=N/Nc2ccc([N+](=O)[O-])cc2[N+](=O)[O-])c1,inactive: 3.86%
6,O=[N+]([O-])c1ncn(CCn2cnc([N+](=O)[O-])n2)n1,inactive: -0.48%
7,CC(=O)NC(SC(=S)N(C)C)C(Cl)(Cl)Cl (stereo not given),inactive: 0.11%
8,c1nnnn1CCn1cnnn1,inactive: 2.98%
9,CC(C)C(=O)NC(Sc1ccccc1)C(Cl)(Cl)Cl (stereo not given),inactive: 3.61%
10,O=P(Nc1nccs1)(c1ccccc1)c1ccccc1,inactive: 0.41%
11,CCc1nc2c(n1)c1c(non1O)c1c2no[n+]1[O-],inactive: 0.18%
12,O=[N+]([O-])c1cc([N+](=O)[O-])c(CCNc2ccccc2)c([N+](=O)[O-])c1,inactive: 1.74%
13,Cc1ccc(NP(=O)(Oc2ccccc2)Oc2ccccc2)nc1,inactive: -2.33%
14,O=[N+]([O-])c1cccc2n[nH]nc12,inactive: -0.67%
15,CC(=O)N1C2C3N(C(C)=O)C1C1N(C(C)=O)C(C(N1C(C)=O)N3C(C)=O)N2C(C)=O,inactive: -0.7%
16,COc1ccc(C2=NCC(CBr)S2)cc1 (stereo not given),inactive: 0.18%
17,CC1CCN(C(=O)Oc2c(Cl)cc(Cl)c3cccnc23)CC1,inactive: 2.97%
18,CN(C)C(=O)OCCc1n(C)cc[n+]1C,inactive: -3.16%
19,CC(C)=N/N=C(\N)N[N+](=O)[O-],inactive: -0.69%
20,CCN(/C(=N/P(=O)(N1CCOCC1)N1CCOCC1)N1CCOCC1)c1ccc(OC)cc1,inactive: 5.28%
21,C[N+]1=C2C=CC=CC=C2SC12C([N+](=O)[O-])=CC([N+](=O)[O-])=C[C-]2[N+](=O)[O-] (stereo not given),inactive: 4.95%
22,Nc1ccc([As](=O)(O)c2ccc(N)cc2)cc1,inactive: -1.57%
23,O=C(Nc1cc([As](=O)(O)O)ccc1O)c1ccccc1,inactive: -0.02%
24,O=[N+]([O-])c1cccc(NC2=NCC(CBr)S2)c1 (stereo not given),inactive: -1.04%
25,O=[N+]([O-])c1ncn(CCn2ncnc2[N+](=O)[O-])n1,inactive: -2.33%

# From PubChem BioAssay AID1987 (The Scripps Research Institute Molecular Screening Center, 2009)
